# Target: Alkaline phosphatase, placental type (Homo sapiens) (UniProt P05187)
# The chains behind the UniProt entries cited, without tags or fusion partners. Where a name states a change or a piece, a line headed by the entry shows the natural chain unless it says otherwise.
# UniProt P05187: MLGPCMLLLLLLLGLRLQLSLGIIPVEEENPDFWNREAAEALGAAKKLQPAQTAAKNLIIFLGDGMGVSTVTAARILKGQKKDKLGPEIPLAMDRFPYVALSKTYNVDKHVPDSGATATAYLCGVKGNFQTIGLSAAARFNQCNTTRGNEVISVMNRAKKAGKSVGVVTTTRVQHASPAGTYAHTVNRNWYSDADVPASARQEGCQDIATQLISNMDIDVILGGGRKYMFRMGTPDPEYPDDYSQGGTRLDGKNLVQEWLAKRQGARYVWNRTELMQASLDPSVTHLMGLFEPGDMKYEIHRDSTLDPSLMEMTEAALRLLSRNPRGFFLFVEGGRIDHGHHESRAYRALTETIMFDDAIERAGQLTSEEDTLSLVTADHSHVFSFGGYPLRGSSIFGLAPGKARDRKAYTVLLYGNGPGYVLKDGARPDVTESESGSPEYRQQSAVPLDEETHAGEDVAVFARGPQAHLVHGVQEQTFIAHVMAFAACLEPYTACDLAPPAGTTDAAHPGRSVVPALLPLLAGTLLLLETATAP
# Assay: inhibition of human placental alkaline phosphatase – biochemical, luminescence, HTS (AID 690)
# Conditions: purified PLAP, luminescent substrate
structure (smiles),measurement,value
COc1ccc2c(c1OC)C(=O)OC2CC(=O)c1ccc(O)c(O)c1 (stereo unspecified),IC50,1.83 µM
